The results in this text go back to patent US20080280358A1 (University of California, published 2008).

This assay addresses Purified rabbit muscle actin (Cytoskeleton Inc.) (rabbit, UniProt P68135 3-377). In words: cell-based or functional assay.

Take SRFEVWPYL [SS16 less active synthetic peptide]: the “bundling activity at molar ratio peptide:actin = 1:1” value is 1 molar ratio peptide:actin and the “effective peptide to actin ratio for bundling” value was > 16 molar ratio peptide:actin.
